Measurements taken from US5739117A, “Agent for improving cerebral metabolism including glucose ester derivatives” (Fujimoto Pharmaceutical Co., Ltd., priority 1993, dated 1998).

Tests used:
[1] = Intra-cerebral and blood concentrations of ^18 F-AFDG and its metabolites after intravenous injection; parameters: species or system mice; details: mouse, in vivo
Experimental: Mice were given an intravenous injection of 0.05 ml solution of 0.5 mM ^18 F-AFD in DMSO.

[2] = rat, in vivo

Question: What does the source list for `OC[C@H]1OC(O)[C@H]([18F])[C@@H](O)[C@@H]1O` (stereo partly drawn) [^18 F-FDG, 2-^18 F-D-glucose]?
Answer: time of emergence of intra-cerebral metabolites [1]: ≤ 0.5 min; competition by glucose of transport to the cerebral tissue [2]: no competition even to the maximum concentration of glucose, 80 mM; transport rate to the cerebral tissue [2]: higher than 90%; transport rate to the cerebral tissue, effect of glucose concentration [2]: decreased inversely as the concentration of glucose was increased
